The source made the active and inactive calls. The calls are words filed in the database; no cut-off is given here.
What was measured:
Histone deacetylase 4 [1] = molecular target: T1, Histone deacetylase 4 (Homo sapiens, UniProt P56524); conditions: 10 uM
Histone deacetylase 5 [2] = molecular target: T2, Histone deacetylase 5 (Homo sapiens, UniProt Q9UQL6); conditions: 10 uM
[3] = molecular target: T3, Histone deacetylase 7 (Homo sapiens) (UniProt Q8WUI4); conditions: 10 uM
T3 sequence (whole entry): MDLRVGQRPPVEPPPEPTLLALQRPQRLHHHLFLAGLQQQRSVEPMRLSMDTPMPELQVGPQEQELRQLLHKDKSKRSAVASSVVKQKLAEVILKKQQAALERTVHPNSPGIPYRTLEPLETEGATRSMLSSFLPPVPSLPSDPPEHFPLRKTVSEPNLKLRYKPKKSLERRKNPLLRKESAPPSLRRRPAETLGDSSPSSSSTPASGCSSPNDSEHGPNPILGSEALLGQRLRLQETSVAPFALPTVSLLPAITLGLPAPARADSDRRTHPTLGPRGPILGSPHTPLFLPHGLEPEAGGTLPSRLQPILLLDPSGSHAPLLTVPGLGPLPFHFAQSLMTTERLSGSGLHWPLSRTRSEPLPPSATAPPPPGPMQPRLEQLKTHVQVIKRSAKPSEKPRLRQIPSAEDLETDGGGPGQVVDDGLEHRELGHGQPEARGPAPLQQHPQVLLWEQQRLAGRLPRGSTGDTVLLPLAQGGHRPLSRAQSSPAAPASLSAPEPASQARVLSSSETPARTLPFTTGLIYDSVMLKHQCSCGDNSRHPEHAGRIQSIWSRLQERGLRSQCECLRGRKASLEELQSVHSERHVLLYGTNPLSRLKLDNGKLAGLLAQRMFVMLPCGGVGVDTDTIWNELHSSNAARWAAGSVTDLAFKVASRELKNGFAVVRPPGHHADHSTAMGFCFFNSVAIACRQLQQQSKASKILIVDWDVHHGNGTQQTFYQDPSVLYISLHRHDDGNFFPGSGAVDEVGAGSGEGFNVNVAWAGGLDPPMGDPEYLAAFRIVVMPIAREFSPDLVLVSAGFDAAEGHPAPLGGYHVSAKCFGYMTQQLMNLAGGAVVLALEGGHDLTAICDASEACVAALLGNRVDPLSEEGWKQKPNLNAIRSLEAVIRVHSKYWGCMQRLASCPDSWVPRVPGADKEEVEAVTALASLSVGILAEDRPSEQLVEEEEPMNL

The chains behind the UniProt entries cited, without tags or fusion partners. Where a name states a change or a piece, a line headed by the entry shows the natural chain unless it says otherwise.
UniProt P56524: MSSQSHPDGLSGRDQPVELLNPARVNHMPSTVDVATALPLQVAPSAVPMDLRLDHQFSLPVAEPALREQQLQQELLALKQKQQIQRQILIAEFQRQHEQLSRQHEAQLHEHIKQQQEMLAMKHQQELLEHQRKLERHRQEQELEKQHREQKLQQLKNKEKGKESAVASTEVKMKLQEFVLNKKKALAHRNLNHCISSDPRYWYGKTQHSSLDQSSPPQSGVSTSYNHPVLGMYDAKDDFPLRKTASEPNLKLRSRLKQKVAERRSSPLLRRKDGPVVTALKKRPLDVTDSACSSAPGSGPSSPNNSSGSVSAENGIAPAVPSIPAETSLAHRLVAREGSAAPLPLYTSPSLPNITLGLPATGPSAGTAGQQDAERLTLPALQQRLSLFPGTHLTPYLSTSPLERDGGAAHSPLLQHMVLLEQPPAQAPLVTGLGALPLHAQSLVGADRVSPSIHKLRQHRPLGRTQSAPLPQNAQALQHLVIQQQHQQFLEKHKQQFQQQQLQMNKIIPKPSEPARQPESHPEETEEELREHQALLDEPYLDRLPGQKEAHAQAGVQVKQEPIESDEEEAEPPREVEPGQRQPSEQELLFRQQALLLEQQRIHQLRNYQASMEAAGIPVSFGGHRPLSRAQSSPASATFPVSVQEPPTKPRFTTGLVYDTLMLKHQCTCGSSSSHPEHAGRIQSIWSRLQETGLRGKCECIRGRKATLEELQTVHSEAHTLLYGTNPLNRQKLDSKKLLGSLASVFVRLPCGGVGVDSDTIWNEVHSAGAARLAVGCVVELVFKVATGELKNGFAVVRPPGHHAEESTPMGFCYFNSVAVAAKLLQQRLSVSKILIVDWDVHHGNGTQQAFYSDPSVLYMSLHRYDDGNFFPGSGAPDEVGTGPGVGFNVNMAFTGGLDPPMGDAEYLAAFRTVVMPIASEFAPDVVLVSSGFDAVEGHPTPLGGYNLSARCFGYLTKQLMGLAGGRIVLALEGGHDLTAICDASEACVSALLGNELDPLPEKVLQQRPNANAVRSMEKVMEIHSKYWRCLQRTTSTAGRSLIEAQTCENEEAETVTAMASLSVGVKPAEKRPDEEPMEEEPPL
UniProt Q9UQL6: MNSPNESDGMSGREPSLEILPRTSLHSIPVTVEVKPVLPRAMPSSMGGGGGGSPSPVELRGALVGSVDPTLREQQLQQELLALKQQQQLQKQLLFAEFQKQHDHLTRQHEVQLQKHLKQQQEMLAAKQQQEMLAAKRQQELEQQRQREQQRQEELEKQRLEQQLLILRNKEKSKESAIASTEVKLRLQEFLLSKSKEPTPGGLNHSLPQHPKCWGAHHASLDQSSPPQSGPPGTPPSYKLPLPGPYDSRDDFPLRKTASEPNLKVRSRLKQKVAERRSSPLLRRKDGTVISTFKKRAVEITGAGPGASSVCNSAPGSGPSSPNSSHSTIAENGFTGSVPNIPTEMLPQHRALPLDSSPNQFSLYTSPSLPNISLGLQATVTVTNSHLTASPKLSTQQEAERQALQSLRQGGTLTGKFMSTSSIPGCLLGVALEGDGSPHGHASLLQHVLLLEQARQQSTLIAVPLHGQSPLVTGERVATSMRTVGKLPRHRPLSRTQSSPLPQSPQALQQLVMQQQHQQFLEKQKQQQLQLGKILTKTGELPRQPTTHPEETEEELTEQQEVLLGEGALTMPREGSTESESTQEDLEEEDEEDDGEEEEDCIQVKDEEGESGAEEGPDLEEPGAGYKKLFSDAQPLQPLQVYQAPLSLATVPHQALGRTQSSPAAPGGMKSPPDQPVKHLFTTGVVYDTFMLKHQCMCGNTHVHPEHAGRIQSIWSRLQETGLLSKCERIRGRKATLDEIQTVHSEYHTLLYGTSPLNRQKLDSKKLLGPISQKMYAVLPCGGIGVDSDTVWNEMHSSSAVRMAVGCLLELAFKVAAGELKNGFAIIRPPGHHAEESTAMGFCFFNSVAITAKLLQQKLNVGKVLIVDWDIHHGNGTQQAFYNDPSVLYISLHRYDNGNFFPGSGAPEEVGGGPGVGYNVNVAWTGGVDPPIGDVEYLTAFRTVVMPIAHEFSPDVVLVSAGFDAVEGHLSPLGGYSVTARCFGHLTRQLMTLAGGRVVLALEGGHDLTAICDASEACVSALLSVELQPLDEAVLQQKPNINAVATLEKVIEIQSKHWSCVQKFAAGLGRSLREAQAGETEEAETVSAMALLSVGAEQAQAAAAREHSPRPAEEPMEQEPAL
UniProt Q9UKV0: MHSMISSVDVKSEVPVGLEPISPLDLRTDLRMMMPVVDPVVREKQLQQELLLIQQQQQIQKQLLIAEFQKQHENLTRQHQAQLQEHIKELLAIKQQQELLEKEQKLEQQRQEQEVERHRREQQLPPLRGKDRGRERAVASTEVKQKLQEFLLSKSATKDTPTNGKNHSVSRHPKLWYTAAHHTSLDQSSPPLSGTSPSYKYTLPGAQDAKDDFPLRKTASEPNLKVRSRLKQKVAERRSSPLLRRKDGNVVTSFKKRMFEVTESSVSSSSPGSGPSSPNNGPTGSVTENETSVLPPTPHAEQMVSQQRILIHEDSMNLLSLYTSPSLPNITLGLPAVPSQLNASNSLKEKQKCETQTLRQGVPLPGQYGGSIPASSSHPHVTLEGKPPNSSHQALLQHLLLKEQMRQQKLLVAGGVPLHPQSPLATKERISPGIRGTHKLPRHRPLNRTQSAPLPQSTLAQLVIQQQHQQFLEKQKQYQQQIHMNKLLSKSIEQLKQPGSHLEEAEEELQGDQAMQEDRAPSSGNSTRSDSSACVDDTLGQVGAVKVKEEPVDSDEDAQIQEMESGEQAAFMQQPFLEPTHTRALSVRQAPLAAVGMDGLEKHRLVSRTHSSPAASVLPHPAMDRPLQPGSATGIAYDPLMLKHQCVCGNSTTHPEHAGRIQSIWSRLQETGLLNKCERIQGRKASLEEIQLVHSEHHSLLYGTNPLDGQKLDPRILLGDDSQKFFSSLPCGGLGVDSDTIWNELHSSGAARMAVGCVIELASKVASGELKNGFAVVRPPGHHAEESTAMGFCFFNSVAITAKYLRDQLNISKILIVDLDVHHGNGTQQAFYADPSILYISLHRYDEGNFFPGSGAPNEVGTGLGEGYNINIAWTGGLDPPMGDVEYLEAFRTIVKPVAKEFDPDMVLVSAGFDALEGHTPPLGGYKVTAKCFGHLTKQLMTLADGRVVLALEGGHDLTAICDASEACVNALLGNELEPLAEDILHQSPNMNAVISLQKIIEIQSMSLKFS
UniProt Q13547, whole entry: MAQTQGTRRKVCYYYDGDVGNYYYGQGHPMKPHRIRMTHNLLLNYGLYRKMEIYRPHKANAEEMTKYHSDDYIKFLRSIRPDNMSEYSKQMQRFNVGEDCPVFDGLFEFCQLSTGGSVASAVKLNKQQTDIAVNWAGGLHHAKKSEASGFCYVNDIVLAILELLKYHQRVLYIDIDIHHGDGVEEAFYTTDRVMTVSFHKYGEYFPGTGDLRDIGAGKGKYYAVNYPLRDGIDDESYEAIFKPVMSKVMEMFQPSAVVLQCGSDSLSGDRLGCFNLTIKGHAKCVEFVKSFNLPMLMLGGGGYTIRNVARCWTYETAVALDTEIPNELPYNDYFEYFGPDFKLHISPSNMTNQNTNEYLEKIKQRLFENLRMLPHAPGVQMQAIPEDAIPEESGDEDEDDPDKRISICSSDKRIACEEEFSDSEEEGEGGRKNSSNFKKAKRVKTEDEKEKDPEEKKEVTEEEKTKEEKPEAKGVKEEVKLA
UniProt Q92769, whole entry: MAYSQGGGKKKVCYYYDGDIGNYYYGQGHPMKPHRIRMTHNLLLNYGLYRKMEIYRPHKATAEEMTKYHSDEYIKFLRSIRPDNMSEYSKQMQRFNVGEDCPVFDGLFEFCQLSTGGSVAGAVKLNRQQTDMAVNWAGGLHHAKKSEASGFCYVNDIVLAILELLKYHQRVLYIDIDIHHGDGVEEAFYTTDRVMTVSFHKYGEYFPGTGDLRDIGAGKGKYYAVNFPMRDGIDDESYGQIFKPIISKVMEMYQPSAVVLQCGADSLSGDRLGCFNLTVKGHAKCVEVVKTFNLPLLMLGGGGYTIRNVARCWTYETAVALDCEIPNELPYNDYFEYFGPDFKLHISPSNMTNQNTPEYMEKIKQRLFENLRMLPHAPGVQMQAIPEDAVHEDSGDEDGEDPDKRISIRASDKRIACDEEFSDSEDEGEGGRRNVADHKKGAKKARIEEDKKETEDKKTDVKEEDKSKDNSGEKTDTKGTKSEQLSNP
UniProt O15379: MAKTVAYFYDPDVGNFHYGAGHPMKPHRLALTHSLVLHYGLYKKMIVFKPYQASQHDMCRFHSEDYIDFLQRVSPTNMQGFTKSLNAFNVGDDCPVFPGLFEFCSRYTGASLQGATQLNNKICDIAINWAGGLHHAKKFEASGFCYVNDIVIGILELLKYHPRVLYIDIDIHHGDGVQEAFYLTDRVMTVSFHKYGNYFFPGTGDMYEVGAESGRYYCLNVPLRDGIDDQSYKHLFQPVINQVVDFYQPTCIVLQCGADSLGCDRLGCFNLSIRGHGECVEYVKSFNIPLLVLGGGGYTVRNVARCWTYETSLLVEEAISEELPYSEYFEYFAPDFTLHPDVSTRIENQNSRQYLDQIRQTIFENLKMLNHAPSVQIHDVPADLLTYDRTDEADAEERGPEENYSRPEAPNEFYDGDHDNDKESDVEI

[4] = molecular target: T4, Histone deacetylase 8 (Homo sapiens) (UniProt Q9BY41); conditions: 10 uM
T4 sequence (whole entry): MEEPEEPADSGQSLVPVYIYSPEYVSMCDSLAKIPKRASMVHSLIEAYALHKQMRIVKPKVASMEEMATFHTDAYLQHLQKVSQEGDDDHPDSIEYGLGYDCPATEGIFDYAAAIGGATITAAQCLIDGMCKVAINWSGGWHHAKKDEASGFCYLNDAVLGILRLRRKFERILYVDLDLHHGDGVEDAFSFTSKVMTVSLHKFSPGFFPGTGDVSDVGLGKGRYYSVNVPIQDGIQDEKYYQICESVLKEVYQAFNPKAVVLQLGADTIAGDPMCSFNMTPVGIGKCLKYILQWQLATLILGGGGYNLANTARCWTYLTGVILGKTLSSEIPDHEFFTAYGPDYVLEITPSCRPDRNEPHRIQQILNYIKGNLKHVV

Histone deacetylase 9 [5] = molecular target: T5, Histone deacetylase 9 (Homo sapiens, UniProt Q9UKV0); conditions: 10 uM
[6] = molecular target: T6, Histone deacetylase 11 (Homo sapiens) (UniProt Q96DB2); conditions: 10 uM
T6 sequence (whole entry): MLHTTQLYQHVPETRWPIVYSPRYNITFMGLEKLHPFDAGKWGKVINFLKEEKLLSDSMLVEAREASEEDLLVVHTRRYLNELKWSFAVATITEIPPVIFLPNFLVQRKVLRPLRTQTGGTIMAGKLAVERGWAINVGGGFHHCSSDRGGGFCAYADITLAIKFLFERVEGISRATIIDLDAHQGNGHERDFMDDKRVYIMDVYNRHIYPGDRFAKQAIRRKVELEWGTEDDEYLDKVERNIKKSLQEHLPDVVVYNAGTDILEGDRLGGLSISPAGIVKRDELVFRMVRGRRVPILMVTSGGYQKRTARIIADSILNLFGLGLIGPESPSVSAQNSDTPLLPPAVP

Histone deacetylase 1 = Histone deacetylase 1 (Homo sapiens, UniProt Q13547); conditions: 5 uM
Histone deacetylase 2 = Histone deacetylase 2 (Homo sapiens, UniProt Q92769); conditions: 5 uM
[7] = molecular target: Histone deacetylase 3/Nuclear receptor corepressor 2 (HDAC3/NCoR2) (Homo sapiens) (UniProt O15379+Q9Y618); conditions: 5 uM
Histone deacetylase 4 [8] = molecular target: T1, Histone deacetylase 4; conditions: 5 uM
Histone deacetylase 5 [9] = molecular target: T2, Histone deacetylase 5; conditions: 5 uM
[10] = molecular target: T7, Protein deacetylase HDAC6 (Homo sapiens) (UniProt Q9UBN7); conditions: 5 uM
T7 sequence (whole entry): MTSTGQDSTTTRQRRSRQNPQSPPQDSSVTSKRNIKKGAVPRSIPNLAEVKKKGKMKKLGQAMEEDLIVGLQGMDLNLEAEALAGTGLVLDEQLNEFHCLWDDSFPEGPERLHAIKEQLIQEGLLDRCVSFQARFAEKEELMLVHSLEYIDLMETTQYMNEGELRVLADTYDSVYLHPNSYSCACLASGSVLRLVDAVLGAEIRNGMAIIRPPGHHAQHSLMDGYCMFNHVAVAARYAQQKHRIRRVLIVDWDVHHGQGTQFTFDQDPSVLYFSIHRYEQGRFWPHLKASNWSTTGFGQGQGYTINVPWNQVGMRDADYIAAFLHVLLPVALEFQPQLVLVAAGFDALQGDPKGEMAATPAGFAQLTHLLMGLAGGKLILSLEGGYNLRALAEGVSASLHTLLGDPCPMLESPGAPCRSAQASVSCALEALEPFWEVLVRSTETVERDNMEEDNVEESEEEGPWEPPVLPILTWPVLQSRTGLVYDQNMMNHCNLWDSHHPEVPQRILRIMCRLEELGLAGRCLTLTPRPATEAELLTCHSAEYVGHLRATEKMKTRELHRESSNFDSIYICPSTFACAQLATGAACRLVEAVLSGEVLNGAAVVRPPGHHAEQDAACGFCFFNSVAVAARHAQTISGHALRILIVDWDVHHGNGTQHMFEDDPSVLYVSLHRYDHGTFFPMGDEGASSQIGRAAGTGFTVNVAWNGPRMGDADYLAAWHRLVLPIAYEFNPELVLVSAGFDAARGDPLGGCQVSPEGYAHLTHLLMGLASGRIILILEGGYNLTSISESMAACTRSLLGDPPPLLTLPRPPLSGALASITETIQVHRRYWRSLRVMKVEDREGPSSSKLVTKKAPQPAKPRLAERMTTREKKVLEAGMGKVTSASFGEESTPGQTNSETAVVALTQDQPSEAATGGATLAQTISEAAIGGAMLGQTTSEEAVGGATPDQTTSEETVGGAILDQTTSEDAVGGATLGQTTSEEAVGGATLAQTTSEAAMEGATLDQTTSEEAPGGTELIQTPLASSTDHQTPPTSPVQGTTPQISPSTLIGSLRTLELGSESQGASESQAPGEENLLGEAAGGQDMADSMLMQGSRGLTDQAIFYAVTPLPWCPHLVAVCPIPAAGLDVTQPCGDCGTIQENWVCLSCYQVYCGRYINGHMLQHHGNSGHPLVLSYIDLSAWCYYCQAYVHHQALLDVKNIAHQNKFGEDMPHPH

[11] = molecular target: T3, Histone deacetylase 7 (Homo sapiens); conditions: 5 uM
[12] = molecular target: T4, Histone deacetylase 8 (Homo sapiens); conditions: 5 uM
Histone deacetylase 9 [13] = molecular target: T5, Histone deacetylase 9; conditions: 5 uM
[14] = molecular target: T8, Polyamine deacetylase HDAC10 (Homo sapiens) (UniProt Q969S8); conditions: 5 uM
T8 sequence (whole entry): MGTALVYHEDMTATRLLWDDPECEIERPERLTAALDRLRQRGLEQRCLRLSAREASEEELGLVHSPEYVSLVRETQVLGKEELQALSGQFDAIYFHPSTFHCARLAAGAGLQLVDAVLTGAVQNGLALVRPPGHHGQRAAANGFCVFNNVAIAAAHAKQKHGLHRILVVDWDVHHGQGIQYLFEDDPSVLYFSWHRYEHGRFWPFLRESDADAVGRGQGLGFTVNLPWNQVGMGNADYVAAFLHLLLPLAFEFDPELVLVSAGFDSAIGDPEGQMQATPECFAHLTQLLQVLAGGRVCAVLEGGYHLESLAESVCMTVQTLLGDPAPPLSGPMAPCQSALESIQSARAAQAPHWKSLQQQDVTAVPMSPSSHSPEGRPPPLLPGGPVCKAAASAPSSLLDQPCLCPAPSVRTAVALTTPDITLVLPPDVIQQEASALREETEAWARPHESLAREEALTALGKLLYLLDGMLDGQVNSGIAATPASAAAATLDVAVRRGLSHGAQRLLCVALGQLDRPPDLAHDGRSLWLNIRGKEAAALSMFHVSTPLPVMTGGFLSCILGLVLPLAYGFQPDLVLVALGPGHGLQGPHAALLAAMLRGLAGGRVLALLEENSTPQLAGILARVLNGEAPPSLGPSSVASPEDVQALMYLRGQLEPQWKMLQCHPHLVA

[15] = molecular target: T6, Histone deacetylase 11 (Homo sapiens); conditions: 5 uM
[16] = molecular target: T9, Histone deacetylase (Homo sapiens) (UniProt Q13547+O15379+Q9UBN7+Q92769+Q9UQL6+Q8WUI4+Q9BY41+Q96DB2+P56524+Q9UKV0+Q969S8); conditions: 200 uM
[17] = molecular target: T9, Histone deacetylase (Homo sapiens); conditions: 200 uM; remark: listed apart in the source
[18] = molecular target: T9, Histone deacetylase (Homo sapiens); conditions: 200 uM; remark: listed apart in the source

SMILES | inhibition (Histone deacetylase 4 [1]) | inhibition (Histone deacetylase 5 [2]) | inhibition [3] | inhibition [4] | inhibition (Histone deacetylase 9 [5]) | inhibition [6] | inhibition (Histone deacetylase 1) | inhibition (Histone deacetylase 2) | inhibition [7] | inhibition (Histone deacetylase 4 [8]) | inhibition (Histone deacetylase 5 [9]) | inhibition [10] | inhibition [11] | inhibition [12] | inhibition (Histone deacetylase 9 [13]) | inhibition [14] | inhibition [15] | inhibition [16] | inhibition [17] | inhibition [18]
O=C(CCCC(=O)NCCc1ccccc1)NO | 80% | 49% | 47% | 70% | 70% | 72% | 31% | 17% | 36% | 6% | 0% | 59% | 29% | 0% | 14% | 35% | 24% |  |  | 
CCOC(=O)NCCCC(=O)NCCc1ccccc1 | 86% | 66% | 74% | 73% | 75% | 78% | 7% | 6% | 10% | 4% | 0% | 16% | 0% | 5% | 10% | 16% | 0% | inactive | inactive | inactive

From ChEMBL document CHEMBL4428107, “Synthesis and biological evaluation of santacruzamate A analogues for anti-proliferative and immunomodulatory activity” (Bioorg Med Chem, 2016)
